Assay outcomes from PubChem.
A549 tox: A549 cytotoxicity, counter-screen for Nrf2 inhibitors | A549 ARE-Fluc cells, CellTiter-Fluor viability, 18-24 h | Potency, µM (top dose mostly 46 µM), for the others: at the highest dose activity change, negative = cytotoxicity, hits mostly inhibitors | 390,000 compounds, 0.16% hits | AID 504648; further: potency means the concentration at half of the fitted maximal effect; on the % scale 0 is the no-effect control and ±100 the full control effect
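A549 ARE-Fluc cells in 5% FBS OPTI-MEM, 5000 cells/well, rested 2 h then exposed to compounds in concentration-response for 18-24 h at 37 °C. Viability by CellTiter-Fluor fluorescence (Ex 405/Em 525) after 30 min; luciferase luminescence (BugLite, 15 min, RT) read afterwards.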
TCR activator: activates T cell receptor signaling; Potency, µM (titrated, usually from 9.22 µM), for inactives: at the highest dose activation of IL-2 secretion, actives largely listed as activators; AID 504894; primary human leukocytes, anti-CD3, IL-2 HTRF, 48 h; 330,000 tested, under 10 active; further: % of control where 0% means no effect
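Primary human leukocytes incubated 48 hr with anti-CD3 beads plus compound, without co-stimulation. Secreted IL-2 measured by HTRF (europium cryptate/d2 anti-IL-2 pair, 320 nm excitation, 665 nm emission).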
Nrf2 activator: activates Nrf2 signaling; AREc32 ARE-luciferase reporter (MCF7-derived line), luminescence, 24 h; Potency, µM (titrated, usually from 46.1 µM), for the others: at the highest dose activation, actives largely listed as activators; 410,000 compounds, 0.31% hits; further: potency means the concentration at half of the fitted maximal effect; % of control where 0% means no effect; nearly all actives have a fitted effect of over 65% in size
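ARE activation measured as luciferase luminescence (Steady-Glo, 30 min RT) in AREc32_Fluc cells after 24 hr compound exposure at 37 deg C, 5% CO2; cells seeded overnight at 1000/well in OPTI-MEM, 5% FBS.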
ClpP mod: qHTS Assay for Activators of ClpP; Potency, µM (titrated, usually from 57.5 µM), for inactives: top-dose activity change, negative = active; 340,000 compounds, 1.9% hits; AID 651965, 2013; purified B. subtilis ClpP, FRET peptide cleavage, 20 min; ATP-dependent Clp protease proteolytic subunit (Bacillus subtilis (strain 168)), P80244; active means well fitted falling curve with a large enough effect; inconclusive means small, poorly fitted or top-dose-only effect; inactive means no such curve, though single readings can be large or run the other way; further: potency means the concentration at half of the fitted maximal effect; the source files actives as falling curves though it sought activators and does not explain the sign; nearly all actives have a fitted effect of over 65% in size
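ClpP 10 microg/mL final, pH 8 Tris/KCl buffer with BSA, glycerol, Tween-20; compound pinned in; FRET-FV substrate; RT 20 min; Ex320/Em430; ΔFRET vs ADEP 5.8 microM, DMSO, no enzyme.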
Nrf2 block: blocks Nrf2 signaling | A549 ARE-Fluc reporter, luciferase luminescence, 18-24 h | Potency, µM (highest dose often 46 µM), for the others: top-dose activity change, negative = inhibition, hits mostly inhibitors | 360,000 compounds, 2.1% hits | AID 504444; further: potency means the concentration at half of the fitted maximal effect; on the % scale 0 is the no-effect control and ±100 the full control effect; nearly all actives have a fitted effect of over 60% in size
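Reporter: ARE-Fluc in A549. Exposure: 18-24 h, 37 °C, 5% CO2, 5% FBS OPTI-MEM. Readouts: fluorescent cytotoxicity (CellTiter-Fluor), then luminescent Nrf2 signal after BugLite.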
miR-21 reporter: raises the signal of a miR-21 reporter; AID 2288; 340,000 tested, under 10 active; Potency, µM (doses to about 38.3 µM), inactives show at the top dose reporter change, positive = more light; HeLa miR-21 FLuc reporter, luciferase, 48 h; active = well fitted rising curve with a large enough effect; inconclusive = small, poorly fitted or top-dose-only effect; inactive = no such curve, though single readings can be large or run the other way;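 note: % of control where 0% means no effect; miR-21 action dims this reporter so a rising signal means less miR-21 action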
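Using DMEM plus 10% FBS, HeLa miR-21-FLuc cells are incubated with test compounds (final up to about 40uM) for 48 hours; firefly luciferase signal is then imaged following reagent-mediated lysis.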
* hit, by the source's call; [ ] = remark or other dose. In the library only some 3.7% were active in any assay of this set; here they are far more common. Unless noted, the call rests on the fitted dose curve; in most records, active means well fitted curve in the direction sought with a large enough effect; inconclusive means small, poorly fitted or top-dose-only effect, or another doubt; inactive means no such curve, though single readings can be large; an effect the other way counts as inactive or inconclusive.

Screening O=C(N/N=C/c1ccc([N+](=O)[O-])s1)c1cccc(Br)c1 returned A549 tox inconclusive, TCR activator 7%[46.1 µM], Nrf2 activator 0%, ClpP mod 1%, Nrf2 block 21µM* and miR-21 reporter inconclusive.
Cc1ccc(C(=O)N/N=C/c2ccc([N+](=O)[O-])s2)cc1 was read as A549 tox inconclusive, TCR activator 3%, Nrf2 activator -4%, ClpP mod -1%, Nrf2 block 16µM* and miR-21 reporter inconclusive.
For O=C(N/N=C/c1cccc(Oc2ccccc2)c1)c1cccc(Br)c1 the results were A549 tox 0%[1.84 µM], Nrf2 activator 3%, ClpP mod -3%, Nrf2 block 18µM* and miR-21 reporter -8%.
C[C@@H]1CN([C@H](C)CO)C(=O)CCCn2nncc2CO[C@H]1CN(C)C was read as Nrf2 activator -1% and ClpP mod 1%.
For CC(C)(C)OC(=O)N/N=C\c1ccc([N+](=O)[O-])s1 the results were A549 tox -7%, Nrf2 activator 11%, Nrf2 block -13% and miR-21 reporter 6%.
`CCOC(=O)N/N=C\c1ccc([N+](=O)[O-])s1` gave A549 tox inconclusive, TCR activator 4%, Nrf2 activator -1%, Nrf2 block 23µM* and miR-21 reporter 30%.
Cc1cccc(NC(=S)N/N=C/c2ccc([N+](=O)[O-])s2)c1 was read as A549 tox inconclusive, TCR activator -7%, Nrf2 activator -1%, ClpP mod 0%, Nrf2 block 11µM* and miR-21 reporter 21%.
Screening CCOc1ccc(NC(=O)C2CCCN(S(=O)(=O)c3c(C)noc3/C=C/N(C)C)C2)cc1 (configuration not stated) returned A549 tox 5%, Nrf2 activator 0%, ClpP mod 1%, Nrf2 block 7% and miR-21 reporter 9%.
Screening CC(C)CC(OC(=O)CNC(=O)c1ccccc1)C(=O)Nc1cc(C(F)(F)F)ccc1Cl (configuration not stated) returned A549 tox -8% and Nrf2 block -3%.
CN(C)C(CNC(=O)CCc1nc2sc3c(c2c(=O)[nH]1)CCCC3)c1ccccc1 (configuration not stated) was read as A549 tox -8%, TCR activator 3%, Nrf2 activator 0%, ClpP mod 28µM* and Nrf2 block 3%.
Screening O=C(CCc1nc2sc3c(c2c(=O)[nH]1)CCCC3)NCCOc1ccccc1 returned A549 tox -6%, TCR activator -3%, Nrf2 activator 2%, ClpP mod 16% and Nrf2 block -9%.
For CC1(C)N=C(SCC(=O)Nc2ccc(Cl)cc2)C(c2ccc(Cl)cc2)=N1 the results were A549 tox inconclusive, TCR activator 8%, Nrf2 activator 16%, ClpP mod -6%, Nrf2 block 26µM* and miR-21 reporter 29%.
CC1(C)N=C(SCC(=O)Nc2ccc(Cl)cc2)C(c2ccccc2)=N1 was read as A549 tox 0%, Nrf2 activator 11%, ClpP mod 0%, Nrf2 block -12% and miR-21 reporter 13%.
O=C(CN1CC(=O)Oc2ccccc21)OCC(=O)c1cccc(Br)c1 was read as A549 tox -7%, TCR activator 0%, Nrf2 activator 13µM*, ClpP mod 1%, Nrf2 block -3% and miR-21 reporter -15%.
C=C(C)COc1ccc(-c2nc(N)ncc2Oc2ccc(OC)cc2)c(O)c1 was read as A549 tox 16%, TCR activator 3%, Nrf2 activator 1%, ClpP mod 25µM*, Nrf2 block -16% and miR-21 reporter -15%.
For C[C@@H]1COc2cccc(N3CCC[C@H]3CO)c2S(=O)(=O)N1 the results were Nrf2 activator 0% and ClpP mod 0%.
Cc1cc(Oc2ccc(C#N)cc2)nc(NCc2ccccc2)n1 was read as A549 tox -7%, TCR activator 5%, Nrf2 activator 0%, ClpP mod -1%, Nrf2 block 16µM* and miR-21 reporter 6%.
For COC(=O)c1ccc(Oc2cc(C)nc(NCc3ccccc3)n2)cc1 the results were A549 tox -10%, TCR activator -16%, Nrf2 activator 2%, ClpP mod 1%, Nrf2 block -11% and miR-21 reporter -8%.
For COc1ccc(CCN2CC(C(=O)NCCCc3ccncc3)CCC2=O)cc1 (configuration not stated) the results were Nrf2 activator 0% and ClpP mod -5%.
Screening Cc1ccc(NC(=O)Cc2ccc(-n3c(C)nc4cccnc43)cc2)c(Cl)c1 returned A549 tox -11%, Nrf2 activator 0%, ClpP mod -2%, Nrf2 block 21µM* and miR-21 reporter inconclusive.

Fetched one by one from the list above (three):
For COC(=O)c1ccc(Oc2cc(C)nc(NCc3ccccc3)n2)cc1 the results were A549 tox -10%, TCR activator -16%, Nrf2 activator 2%, ClpP mod 1%, Nrf2 block -11% and miR-21 reporter -8%.
C=C(C)COc1ccc(-c2nc(N)ncc2Oc2ccc(OC)cc2)c(O)c1 was read as A549 tox 16%, TCR activator 3%, Nrf2 activator 1%, ClpP mod 25µM*, Nrf2 block -16% and miR-21 reporter -15%.
CC1(C)N=C(SCC(=O)Nc2ccc(Cl)cc2)C(c2ccccc2)=N1 was read as A549 tox 0%, Nrf2 activator 11%, ClpP mod 0%, Nrf2 block -12% and miR-21 reporter 13%.

(list continues)
For CCc1nc2cccnc2n1-c1ccc(CC(=O)O)cc1 the results were A549 tox 3%, TCR activator -6%, Nrf2 activator -1%, ClpP mod 0%, Nrf2 block -12% and miR-21 reporter -4%.
CCCn1c(=O)sc2cc(NC(=O)c3ccc(OC)c(Br)c3)ccc21 was read as A549 tox -13%, Nrf2 activator 3%, ClpP mod -28%, Nrf2 block 16µM* and miR-21 reporter 24%.
Screening C[C@@H]1CN([C@H](C)CO)C(=O)CCCn2nncc2CO[C@H]1CN(C)Cc1ccc(Oc2ccccc2)cc1 returned Nrf2 activator 1% and ClpP mod 1%.
`CCOc1ccc(S(=O)(=O)N2CCN(C(=S)NCc3ccccc3)CC2)cc1` gave A549 tox 3%, TCR activator 1%, Nrf2 activator 1%, ClpP mod 0%, Nrf2 block 26µM* and miR-21 reporter 2%.
CCOc1ccc(CC(=O)N/N=C/c2cccnc2)cc1 was read as A549 tox 6%, TCR activator 1%, Nrf2 activator 0%, ClpP mod 16µM*, Nrf2 block 2% and miR-21 reporter 3%.
COc1ccc(C(=O)c2cc([N+](=O)[O-])ccc2N2CCN(C)CC2)cc1 was read as A549 tox 15µM*, TCR activator -2%, Nrf2 activator 0%, Nrf2 block 10% and miR-21 reporter 16%.
Screening Cc1nnc(SCc2cccc(Oc3ccccc3)c2)n1N returned A549 tox 2%, TCR activator 3%, Nrf2 activator 2%, ClpP mod 3.2µM*, Nrf2 block 0% and miR-21 reporter -17%.
